We go through one substance from patent US5318901A, “Method for the production of a modified "8-amino acid" cyclosporin derivative” (Merck & Co., Inc., priority 1992, dated 1994).

For the data set, the system named is freshly prepared proximal tubules from rabbit. The conditions noted are these: 30 μg/ml; 23 hours exposure; 3H-leucine incorporation per ug protein; rabbit proximal tubule suspensions.

Regarding “8-(2-deutero-3-fluoro-D-alanine)cyclosporin A”, the “Mean Specific Activity (± standard error)” value is listed as 92.0 (0.3) percent of control specific ac.
